# B1: Tumor necrosis factor receptor superfamily member 5 (Homo sapiens), P25942 (parent)
# chain: MVRLPLQCVLWGCLLTAVHPEPPTACREKQYLINSQCCSLCQPGQKLVSDCTEFTETECLPCGESEFLDTWNRETHCHQHKYCDPNLGLRVQQKGTSETDTICTCEEGWHCTSEACESCVLHRSCSPGFGVKQIATGVSDTICEPCPVGFFSNVSSAFEKCHPWTSCETKDLVVQQAGTNKTDVVCGPQDRLRALVVIPIIFGILFAILLVLVFIKKVAKKPTNKAPHPKQEPQEINFPDDLPGSNTAAPVQETLHGCQPVTQEDGKESRISVQERQ
# partner: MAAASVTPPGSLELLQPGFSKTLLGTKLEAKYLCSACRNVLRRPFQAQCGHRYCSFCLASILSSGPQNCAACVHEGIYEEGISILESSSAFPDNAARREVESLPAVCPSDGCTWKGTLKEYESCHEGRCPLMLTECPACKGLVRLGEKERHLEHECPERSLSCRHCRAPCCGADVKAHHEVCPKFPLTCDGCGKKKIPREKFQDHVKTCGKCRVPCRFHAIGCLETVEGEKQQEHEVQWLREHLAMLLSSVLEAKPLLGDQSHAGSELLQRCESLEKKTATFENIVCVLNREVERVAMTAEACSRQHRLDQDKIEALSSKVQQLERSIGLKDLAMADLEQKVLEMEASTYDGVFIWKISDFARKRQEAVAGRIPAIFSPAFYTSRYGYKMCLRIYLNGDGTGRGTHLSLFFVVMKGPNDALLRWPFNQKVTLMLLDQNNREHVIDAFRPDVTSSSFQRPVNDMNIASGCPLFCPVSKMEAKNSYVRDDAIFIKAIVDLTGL
# Variants of: B1
# Conditions: with traf2_human TRAF2, Q12933
row,effect of a mutation on the interaction,Variant
1,disrupting interaction strength,C83R

# From IntAct's records for PubMed 25502805
